The list shows a part of the results, in another mix than the full data. Active and inactive are the calls of the source. Rule as the data show it: active = fluorescence above about 89; inactive = the rest.

A short description of the assay: green autofluorescence of compounds with GSH beads – biophysical, 488/530 nm, flow cytometry, artefact control, profiling panel (AID 1776).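 Also: glutathione beads carrying GST-tagged Bcl family fusion proteins plus one bare bead set; values are compound well signal with DMSO vehicle wells as background.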 Particulars: compound fluorescence 488/530 nm, at 10 µM, active compounds read high. (Flow cytometry measures light scatter and fluorescence of single cells or particles in a stream.)
For `c1nnnn1CCn1cnnn1`, the fluorescence (KMESF) is inactive: 29.

On to `CC(C)C(=O)NC(Sc1ccccc1)C(Cl)(Cl)Cl` (centres undefined), for which the fluorescence (KMESF) is inactive: 17.

Turning to `O=P(Nc1nccs1)(c1ccccc1)c1ccccc1`, the fluorescence (KMESF) was inactive: 27.

In the case of `C(Cc1nn[nH]n1)Cc1nn[nH]n1`, the fluorescence (KMESF) is inactive: 11.

Take `O=C(OC1CN2CCC1CC2)c1cccc(Cl)c1` (centres undefined): the fluorescence (KMESF) was inactive: 24.

On to `CC(=O)NC(SC(=S)N(C)C)C(Cl)(Cl)Cl` (centres undefined), for which the fluorescence (KMESF) is inactive: 24.

On to `O=P(Nc1ccccn1)(c1ccc(Br)cc1)c1ccc(Br)cc1`, for which the fluorescence (KMESF) was inactive: 15.

Turning to `O=c1c2cc([N+](=O)[O-])ccc2[nH]c2c([N+](=O)[O-])cc([N+](=O)[O-])cc12`, the fluorescence (KMESF) was inactive: 10.

Consider `Cc1ccc(OP(=O)(Nc2ccccn2)Oc2ccc(C)cc2)cc1`, for which the fluorescence (KMESF) was inactive: 12.

For the molecule `CC(=O)NC(SC(=S)N(CC(C)C)CC(C)C)C(Cl)(Cl)Cl` (centres undefined), the fluorescence (KMESF) was inactive: 24.

For `COC(=O)c1cc2c(s1)N=C(c1ccccc1)N(C)P2(=O)N1CCOCC1` (centres undefined), the fluorescence (KMESF) was inactive: 23.

For `CCC(=O)N1C2C3N(C(=O)CC)C1C1N(C(=O)CC)C(C(N1C(=O)CC)N3C(=O)CC)N2C(=O)CC`, the fluorescence (KMESF) is inactive: 16.

Consider `CCNC(=S)/N=C(\N)N[N+](=O)[O-]`, for which the fluorescence (KMESF) was inactive: 21.

As for `O=C(NC1CCS(=O)(=O)C1)NP(=S)(Oc1ccccc1)Oc1ccccc1` (centres undefined), the fluorescence (KMESF) was inactive: 16.

`CCOC(=O)NC(Sc1ccccc1)C(Cl)(Cl)Cl` (centres undefined): the fluorescence (KMESF) is inactive: 13.

Turning to `c1ccc(-c2nn[nH]n2)c(-c2nn[nH]n2)c1`, the fluorescence (KMESF) was inactive: 9.

`CC(=O)Nc1ccc(Oc2c([N+](=O)[O-])cc([N+](=O)[O-])cc2[N+](=O)[O-])cc1`: the fluorescence (KMESF) is inactive: 17.

Take `CC(C)(C)C(=O)NC(Sc1ccccc1)C(Cl)(Cl)Cl` (centres undefined): the fluorescence (KMESF) was inactive: 12.

Consider `CCOc1ccc(C2=NCC(CBr)S2)cc1` (centres undefined), for which the fluorescence (KMESF) was inactive: 26.

With `O=P1(Nc2nc3ccc(Cl)cc3s2)COc2ccccc2O1` (centres undefined), the fluorescence (KMESF) was inactive: 6.

As to `CC(C)CC(=O)NC(Sc1ccc(Cl)cc1)C(Cl)(Cl)Cl` (centres undefined), the fluorescence (KMESF) is inactive: 55.

For the molecule `Cc1c2non([O-])c-2c(C)[n+](=O)[n+]1[O-]`, the fluorescence (KMESF) was inactive: 45.

As for `O=C(NC(Sc1ccncn1)C(Cl)(Cl)Cl)c1ccccc1` (centres undefined), the fluorescence (KMESF) is inactive: 10.

For the molecule `Oc1ccccc1CNc1ccccn1`, the fluorescence (KMESF) was inactive: 26.

In the case of `COc1ccccc1OP(=O)(Nc1ccc(C)cn1)Oc1ccccc1OC`, the fluorescence (KMESF) was inactive: 13.

As for `Clc1ccc(Cl)c(NC2=NCC(CBr)S2)c1` (centres undefined), the fluorescence (KMESF) is inactive: 24.

Consider `CN1CCCC(OC(=O)C(c2ccccc2)c2ccccc2)C1` (centres undefined), for which the fluorescence (KMESF) was inactive: 14.

Turning to `NC(=O)c1cc([N+](=O)[O-])cc([N+](=O)[O-])c1N`, the fluorescence (KMESF) was inactive: 10.

On to `Cc1ccc(N/C(=N/P(=O)(N2CCOCC2)N2CCOCC2)N2CCOCC2)cc1`, for which the fluorescence (KMESF) was inactive: 72.

As for `CCN(N=Nc1nonc1N)c1nonc1N`, the fluorescence (KMESF) was inactive: 16.

For the molecule `CCOP(=O)(Nc1ccccc1)OCC`, the fluorescence (KMESF) was inactive: 12.

As to `Cc1cc(SC(NC(=O)c2ccc(F)cc2)C(Cl)(Cl)Cl)ncn1` (centres undefined), the fluorescence (KMESF) was inactive: 18.

Consider `O=[N+]([O-])c1ncn(CCn2ncnc2[N+](=O)[O-])n1`, for which the fluorescence (KMESF) was inactive: 16.

Consider `CN(C)C(=O)OCCc1n(C)cc[n+]1C`, for which the fluorescence (KMESF) is inactive: 8.

With `CC(C)=N/N=C(\N)N[N+](=O)[O-]`, the fluorescence (KMESF) is inactive: 18.

Regarding `CC1CCN(C(=O)Oc2c(Cl)cc(Cl)c3cccnc23)CC1`, the fluorescence (KMESF) is inactive: 10.

Take `CCN(/C(=N/P(=O)(N1CCOCC1)N1CCOCC1)N1CCOCC1)c1ccc(OC)cc1`: the fluorescence (KMESF) was inactive: 13.

With `O=[N+]([O-])c1cccc2n[nH]nc12`, the fluorescence (KMESF) was inactive: 51.

Consider `CC(=O)N1C2C3N(C(C)=O)C1C1N(C(C)=O)C(C(N1C(C)=O)N3C(C)=O)N2C(C)=O`, for which the fluorescence (KMESF) was inactive: 24.

As to `CCc1nc2c(n1)c1c(non1O)c1c2no[n+]1[O-]`, the fluorescence (KMESF) was inactive: 8.

Consider `O=[N+]([O-])c1cc([N+](=O)[O-])c(CCNc2ccccc2)c([N+](=O)[O-])c1`, for which the fluorescence (KMESF) is inactive: 13.

`Cc1ccc(NP(=O)(Oc2ccccc2)Oc2ccccc2)nc1`: the fluorescence (KMESF) is inactive: 9.

Regarding `COc1ccc(C2=NCC(CBr)S2)cc1` (centres undefined), the fluorescence (KMESF) was inactive: 13.

With `CCC(C)N(CC(C)C)C(=S)SC(NC(C)=O)C(Cl)(Cl)Cl` (centres undefined), the fluorescence (KMESF) was inactive: 21.

With `O=C(COc1ccccc1)OC1CN2CCC1CC2` (centres undefined), the fluorescence (KMESF) was inactive: 21.

`COP1(=S)c2c(C)nn(CCC#N)c2N=C(c2ccc(F)cc2)N1C` (centres undefined): the fluorescence (KMESF) was inactive: 26.

Consider `O=P(Nc1ccccn1)(c1cccc2ccccc12)c1cccc2ccccc12`, for which the fluorescence (KMESF) was inactive: 18.

Consider `Cc1cc(SC(NC=O)C(Cl)(Cl)Cl)ncn1` (centres undefined), for which the fluorescence (KMESF) is inactive: 16.

As for `Cc1cc(SC(NC(=O)c2ccccc2)C(Cl)(Cl)Cl)nc(C(C)C)n1` (centres undefined), the fluorescence (KMESF) is inactive: 10.

Consider `O=[N+]([O-])c1cc([N+](=O)[O-])c(-c2ccn[nH]2)s1`, for which the fluorescence (KMESF) is inactive: 15.

On to `CCN(CC)C(=S)SC(NC=O)C(Cl)(Cl)Cl` (centres undefined), for which the fluorescence (KMESF) was inactive: 10.

For the molecule `CC(C)NC(=O)NP(=O)(Oc1ccccc1)Oc1ccccc1`, the fluorescence (KMESF) is inactive: 15.

On to `ClCCSc1nnc(-c2cccnc2)o1`, for which the fluorescence (KMESF) is inactive: 29.

Turning to `Cc1ccc2nc3c(c(C)c2c1)CC(C(Cl)Cl)S3` (centres undefined), the fluorescence (KMESF) was inactive: 20.

As for `COc1ccc(N/C(=N/P(=O)(N2CCOCC2)N2CCOCC2)N2CCOCC2)cc1`, the fluorescence (KMESF) was inactive: 9.

On to `COc1ccc2nc(NP(=O)(c3ccccc3)c3ccccc3)sc2c1`, for which the fluorescence (KMESF) is inactive: 10.

For `Cc1cc(=O)[nH]c(N[N+](=O)[O-])n1`, the fluorescence (KMESF) was inactive: 14.

Take `O=C(OC1CN2CCC1CC2)C12CC3CC(CC(C3)C1)C2` (centres undefined): the fluorescence (KMESF) is inactive: 25.

Regarding `Cc1c2c(nc3ccccc13)SC(C(Cl)Cl)C2` (centres undefined), the fluorescence (KMESF) is inactive: 9.

As to `CCOP(=O)(Nc1cccc2ccccc12)OCC`, the fluorescence (KMESF) is inactive: 19.

As for `COc1cc(C2NCCC3(OCCO3)C2(C)C)cc(OC)c1OC` (centres undefined), the fluorescence (KMESF) was inactive: 10.

Regarding `Cc1ccc(NCCc2c([N+](=O)[O-])cc([N+](=O)[O-])cc2[N+](=O)[O-])cc1`, the fluorescence (KMESF) is inactive: 8.

In the case of `Cc1cccc(OCC(=O)OC2CN3CCC2CC3)c1` (centres undefined), the fluorescence (KMESF) was inactive: 10.

As to `COc1cc(C(=O)NCC2(N3CCOCC3)CCCCC2)cc(Cl)c1OC(C)C`, the fluorescence (KMESF) is inactive: 11.

As to `O=[N+]([O-])c1ccc2c(c1)nnn2O`, the fluorescence (KMESF) is inactive: 57.

Consider `CCOP1(=S)c2c(C)nn(CCC#N)c2N=C(c2ccc(F)cc2)N1C` (centres undefined), for which the fluorescence (KMESF) was inactive: 34.

As for `O=P(Nc1nccs1)(c1ccccc1)c1nc2ccccc2s1` (centres undefined), the fluorescence (KMESF) is inactive: 23.

As to `O=P(Nc1nccs1)(Oc1ccccc1)Oc1ccccc1`, the fluorescence (KMESF) was inactive: 14.

For `CCOP1(=S)c2c(C)nn(CCC#N)c2N=C(c2ccccc2F)N1C` (centres undefined), the fluorescence (KMESF) was inactive: 25.

Regarding `O=P1(Nc2ccc(Br)cn2)COc2ccccc2OC1`, the fluorescence (KMESF) was inactive: 5.

Consider `Cc1ccc(OCC(=O)OC2CN3CCC2CC3)cc1` (centres undefined), for which the fluorescence (KMESF) is inactive: 52.

In the case of `O=P1(Nc2ncccn2)COc2ccccc2OC1`, the fluorescence (KMESF) was inactive: 29.

`CN(C)C1(CNC(=O)c2ccc(S(C)(=O)=O)cc2)CCCCC1`: the fluorescence (KMESF) was inactive: 22.

Consider `CC1CCC(C(C)C)C(OP(=O)(Nc2ccccn2)c2ccccc2)C1` (centres undefined), for which the fluorescence (KMESF) was inactive: 20.

With `Cc1nn(-c2ccccc2)c2c1P(=O)(N1CCOCC1)N(C)C(c1ccccc1)=N2` (centres undefined), the fluorescence (KMESF) was inactive: 21.

In the case of `CC(C)/C=N\N=C(\N)N[N+](=O)[O-]`, the fluorescence (KMESF) is inactive: 12.

In the case of `CN(C(=O)Cc1ccc(Cl)c(Cl)c1)[C@@H]1CCCC[C@H]1N1CCCC1`, the fluorescence (KMESF) is inactive: 66.

On to `Clc1n[nH]nc1-c1nn[nH][15n]1`, for which the fluorescence (KMESF) was inactive: 26.

As to `O=P1(Nc2ccccn2)COc2ccccc2OC1`, the fluorescence (KMESF) was inactive: 30.
